Experimental data: PubChem BioAssay AID436 (Emory University Molecular Libraries Screening Center, 2006)
The entries are a selection whose mix differs from that of the whole data set. Some results for these compounds are left out of this collection, so the calls shown say nothing about other tests. The source made the active and inactive calls.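 The calls were made as follows: active = activity remaining at or below 50% of control, provided the compound also passes the data quality filters; inactive = the rest, including low values that fail the filters.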

Amino acid sequences for entries named in this document (tags omitted).
UniProt Q92560, whole entry: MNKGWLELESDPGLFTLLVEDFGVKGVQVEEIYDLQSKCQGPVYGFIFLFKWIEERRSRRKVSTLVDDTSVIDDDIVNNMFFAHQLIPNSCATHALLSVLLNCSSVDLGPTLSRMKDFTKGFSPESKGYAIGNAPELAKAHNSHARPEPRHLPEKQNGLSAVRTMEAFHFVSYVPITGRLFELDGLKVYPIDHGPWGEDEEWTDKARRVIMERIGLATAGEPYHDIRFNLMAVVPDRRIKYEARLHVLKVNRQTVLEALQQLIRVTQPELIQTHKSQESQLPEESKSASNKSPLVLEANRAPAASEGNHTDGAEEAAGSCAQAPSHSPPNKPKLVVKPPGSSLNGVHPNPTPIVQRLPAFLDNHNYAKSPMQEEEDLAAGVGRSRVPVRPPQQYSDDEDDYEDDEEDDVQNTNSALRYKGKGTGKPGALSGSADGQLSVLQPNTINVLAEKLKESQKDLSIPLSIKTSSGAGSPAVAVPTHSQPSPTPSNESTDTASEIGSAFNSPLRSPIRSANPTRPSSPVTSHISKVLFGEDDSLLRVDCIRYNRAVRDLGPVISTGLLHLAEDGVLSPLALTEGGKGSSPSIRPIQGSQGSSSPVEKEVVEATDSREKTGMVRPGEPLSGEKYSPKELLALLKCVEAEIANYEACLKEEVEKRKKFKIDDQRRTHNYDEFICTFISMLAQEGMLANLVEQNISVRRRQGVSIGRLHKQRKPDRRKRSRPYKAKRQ

The compounds below were run against Ubiquitin carboxyl-terminal hydrolase BAP1 (Homo sapiens) (UniProt Q92560) (assay: inhibitors of BAP1 deubiquitinase, primary screen, biochemical, Ub-AMC fluorescence, kinetic (AID 436;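 also: 100% = DMSO wells rate and 0% = substrate alone blank rate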)). Details: recombinant BAP1, Ub-AMC hydrolysis fluorescence kinetic; at 20 µM; active compounds read low.

SMILES | activity remaining (% of control)
CN(C)c1cccc(C(=O)NCC2(N(C)C)CCCCC2)c1 | inactive: 110%
O=C(OC1CN2CCC1CC2)C(CO)(c1ccccc1)c1ccccc1 (configuration not stated) | inactive: 105%
